From ChEMBL document CHEMBL1681690, “Discovery of TAK-733, a potent and selective MEK allosteric site inhibitor for the treatment of cancer” (Bioorg Med Chem Lett, 2011)

Protein sequences, listed by entry. Tags and fused reporters are not part of them.
UniProt Q02750, whole entry: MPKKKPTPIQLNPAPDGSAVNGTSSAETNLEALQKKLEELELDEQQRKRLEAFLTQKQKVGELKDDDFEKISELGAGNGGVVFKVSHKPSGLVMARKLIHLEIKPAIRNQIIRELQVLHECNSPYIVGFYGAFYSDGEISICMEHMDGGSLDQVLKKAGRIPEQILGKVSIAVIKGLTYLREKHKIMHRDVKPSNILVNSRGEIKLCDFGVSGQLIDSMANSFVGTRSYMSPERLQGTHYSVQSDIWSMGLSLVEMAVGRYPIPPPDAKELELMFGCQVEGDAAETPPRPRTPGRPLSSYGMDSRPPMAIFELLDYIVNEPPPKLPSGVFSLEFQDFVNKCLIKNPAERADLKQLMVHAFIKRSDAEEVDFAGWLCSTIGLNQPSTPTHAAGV

Biological target: Dual specificity mitogen-activated protein kinase kinase 1 (Homo sapiens, UniProt Q02750)

Cn1c(=O)cc(Nc2ccc(I)cc2F)c2c(=O)n(CCO)cnc21
IC50: 9.8 nM

Cn1c(=O)c(F)c(Nc2ccc(Br)cc2F)c2c(=O)n(C[C@@H](O)CO)cnc21
IC50: 16 nM
